AlphaSeq binding of Ab-14 light chain variants to a spike HR2 peptide

The measurements come from Li et al. 2023 (doi:10.1038/s41467-023-39022-2) through the FLAb antibody collection.

Antigen: PDVDLGDISGINAS, a 14-residue peptide of the SARS-CoV-2 spike HR2 region.

Parent scFv Ab-14: VH joined to VL by a 15-residue (Gly4Ser)3 linker. Changes lie in the light chain CDRs alone.
VH: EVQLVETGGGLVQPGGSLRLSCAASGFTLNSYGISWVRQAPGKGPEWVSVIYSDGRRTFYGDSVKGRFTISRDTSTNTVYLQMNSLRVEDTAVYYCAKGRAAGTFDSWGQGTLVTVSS
VL: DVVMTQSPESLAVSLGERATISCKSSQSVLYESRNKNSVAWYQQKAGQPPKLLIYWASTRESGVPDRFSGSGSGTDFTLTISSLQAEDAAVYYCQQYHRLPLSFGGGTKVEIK

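The parent was found by panning a naive human phage display library on the peptide. This is the validation round: designs drawn from the data on random variants, tested in the same kind of assay. Several design methods are mixed in this list. The assay is AlphaSeq: two haploid yeast populations carry antibody and antigen on their surface. After mating in shaken culture at 30 °C for 16 h, diploids were selected and their barcode pairs sequenced. A regression on co-assayed BCL2-family reference pairs converts the normalised counts of each replicate to an apparent Kd. The assay was run in six technical replicates.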

Each variant is given by its three light chain CDRs, as the data file delimits them; those of the parent are KSSQSVLYESRNKNSVA, WASTRES, QQYHRLPLS.
Affinities are written as log10 Kd with Kd in nM; a lower number is a better binder.
Averages over replicates are reported, and they cover detected replicates only.
An entry "no signal" has no value in the source: the pair was not observed among the diploids in any replicate. This suggests poor binding but is not conclusive.
The list is sorted by this average, lowest first, undetected variants last.

log10 Kd (nM), mean	detected	CDR-L1	CDR-L2	CDR-L3
-0.40	6/6	KLSQSVLYESRNKNSVA	EASQRED	QQYHRLPLS
-0.30	6/6	KVSQEHLYESRNKNSVA	DASTRES	QQYHRLPLS
-0.26	6/6	KLDQSTLYESRNKNSVA	NASTRES	QQYHRLPLS
-0.25	6/6	KVDQEWQYGSRNKNSVA	NASQRES	QQYHRLPLS
-0.24	6/6	KSSQSWLYESRNKNSVA	GASTREK	QQYHRLPLS
-0.17	6/6	KLEQSVLYESRNKNSVA	HASTRES	QQYHRLPLS
-0.16	6/6	KLSQGWLYESRNKNNVA	NASWREQ	QQYHRLPLS
-0.16	6/6	KISPSVLYESRNKNSVA	GASTRES	QQYHRLPLS
-0.13	6/6	KVSQSWLYESRNKQSVA	NASTRES	QQYHRLPLS
-0.05	6/6	KSSGSVLYESRNKNSVA	GASTRES	QQYMRLPLS
-0.04	6/6	HVKEDLNMGMKFQSSVA	SGAHREE	QQYYRLPLG
0.00	6/6	MIDMEEAPNKQQASSIA	QGGLRAK	QQYYRLPLC
0.01	6/6	KSSQSWDYESRNKNSVA	NASTRES	QQYHRLPLS
0.03	6/6	KEPQSHDYESRNKNSVA	NASERES	QQYHRLPLS
0.07	6/6	KLMGSMLYEQRMTNSVA	NASQRMS	QQYHRLPLS
0.07	6/6	MLSDVTEGMRRKHNSVA	DNNTRED	QQYDRLPLS
0.14	6/6	KLSQSVLYESRNKNSVA	EASQREV	QQYHRLPLS
0.25	6/6	KLRQSCEYEDRNKNNVA	MASQRCS	QQYHRLPLS
0.29	6/6	KSSSSYLYESENKNSVA	EASQRES	QQYHRLPLS
0.32	6/6	KSSQSVLYESRNKNSVA	GASTPES	QQYHRLPLS
0.42	6/6	TISQMLLMQTGHKNSVA	GEETRYN	QQYHHLPLS
0.42	6/6	KLQTLTNTANIGESSVA	DANVHVD	QQYFRLPLS
0.45	6/6	KSSQSVLYESRNKNSVA	EKSTRES	QQYHRLPLS
0.47	6/6	KLSQSVLMESRNANSVA	GCSTRES	QQYHRLPLS
0.51	6/6	VGDESYQQGVHEMNNIA	NGDQKVD	QQYYRLPLL
0.52	6/6	SMAWQQGGYNQQEAAIA	EAATRTQ	QQYFRLPLT
0.55	6/6	HISDLIMVASRNRNSVA	DESARPD	QQYHRLPLS
0.69	6/6	KLNDDFQVHERNNGSVA	DAIISEA	QQYARLPLI
0.71	6/6	KISQMVRVGSTHSNSIA	EEATRAK	QQYHRLPLA
0.81	6/6	TISQMTSLFSQTINNVA	EVSTREQ	QQYDRLPLM
0.91	6/6	QLSSITGHQSMIKNNVA	EMETREN	QQYDRLPLA
0.91	6/6	KQSQSVLYESRNKNSVA	DASTRES	QQYHRLPLI
1.04	6/6	MFSQLTYTGSKARNAVA	QAETRVN	QQYHHLPLI
1.07	6/6	KLSISMLHESIHKHSVA	EVRTRES	QQYDRLPLS
1.07	6/6	KLQWQQYGENQQEAAIA	NEQTVAQ	QQYSKLPLT
1.07	6/6	MLSQMWGLGMKASNSVA	QASMRFN	QQYHRLPLI
1.15	6/6	MISQLYNMGQFAINSVA	QASTRNA	QQYDRLPLI
1.28	6/6	KLRQSTLYESRNKNNVA	WASTRES	QQYHRLPLS
1.29	1/6	KSSQSFLYENRNKNSVA	GASTRES	QQYHRLTLS
1.33	1/6	KASQSVLYESRNKNSVA	WAGVKES	QQYHRLPLS
1.62	2/6	RISRHVYDETNTYENVA	HEHIRAN	QQYSRLPLS
1.65	4/6	KSSQSVLYESRCKNSVA	WASTREN	QQYSRLPLS
1.98	6/6	MMSQVTGLGQRHRNNVA	QTSEREA	QQYDRLPLI
2.19	5/6	KCSQSVLYEDRNKNSVA	WASEREF	QQYHRLPLS
2.42	6/6	NSSDSVLYESRNKNNVA	WASTRES	QQYHYLPLS
2.47	3/6	KSSQSVLYESRNKNSVA	WASMREQ	QQYHMLPLS
2.48	2/6	KSSYSCLYESRNKNSVA	WASTRES	QQYHRLPLS
2.65	1/6	KLSISYLFQSQEKNSIA	ENSTREK	QHYHRLPLS
no signal	0/6	KASISVLYESRNENSVA	EASTREQ	QQYHRLPLS

Nonspecific signal, from three strains lacking the peptide, appeared in 4% of pairings of all light chain designs, centred on 2.64 (5% of these signals below 1.59); values are not corrected for it.
In the paper, a design with two or fewer of six values counts as a poor binder.
The parent sequence was in this pool as ten entries: three were never detected, three once, and four in most replicates, with averages from 0.34 to 2.37.
Values of this round are not directly comparable with the first-round values of the same sequences.